Patent US10335503B2, “Compound that specifically binds to AMPA receptor” (Public University Corporation Yokohama City University, priority 2015, dated 2019)

The chains behind the UniProt entries cited, without tags or fusion partners.
UniProt P30411, whole entry: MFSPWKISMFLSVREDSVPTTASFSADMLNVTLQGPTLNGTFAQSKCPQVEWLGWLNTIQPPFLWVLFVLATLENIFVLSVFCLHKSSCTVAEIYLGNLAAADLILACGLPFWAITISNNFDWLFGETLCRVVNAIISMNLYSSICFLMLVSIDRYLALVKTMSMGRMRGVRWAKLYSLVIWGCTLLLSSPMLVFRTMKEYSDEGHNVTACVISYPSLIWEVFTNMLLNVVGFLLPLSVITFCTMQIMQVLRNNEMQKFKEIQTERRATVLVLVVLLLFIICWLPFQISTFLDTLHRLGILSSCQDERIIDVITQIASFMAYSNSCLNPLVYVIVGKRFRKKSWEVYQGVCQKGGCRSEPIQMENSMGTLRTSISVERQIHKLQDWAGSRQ

Tests used:
Details in all cases: Positive substance, concentration not given
[1] = target: Angiotensin AT1 (Homo sapiens, UniProt P30556); assay: Receptor binding panel: Angiotensin AT1
[2] = target: T1, Angiotensin AT2 (Homo sapiens, UniProt P50052); assay: Receptor binding panel: Angiotensin AT2
T1 sequence (P50052 1-363): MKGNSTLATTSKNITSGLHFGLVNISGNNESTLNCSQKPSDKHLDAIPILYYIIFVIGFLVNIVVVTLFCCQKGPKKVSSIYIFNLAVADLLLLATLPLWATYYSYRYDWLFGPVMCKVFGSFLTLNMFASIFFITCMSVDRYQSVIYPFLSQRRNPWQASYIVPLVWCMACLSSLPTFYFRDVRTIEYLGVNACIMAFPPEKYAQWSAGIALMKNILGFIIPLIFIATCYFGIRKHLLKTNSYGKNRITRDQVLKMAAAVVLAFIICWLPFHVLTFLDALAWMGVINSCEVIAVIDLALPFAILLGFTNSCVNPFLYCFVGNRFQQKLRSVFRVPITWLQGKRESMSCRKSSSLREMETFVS

[3] = target: Bradykinin B2 (Homo sapiens, UniProt P30411); assay: Receptor binding panel: Bradykinin B2

Substance	Inhibition (%) [1] [%]	Inhibition (%) [2] [%]	Inhibition (%) [3] [%]
Angiotensin II [reference compound]	100.00	100.00	–
HOE140 [reference compound]	–	–	99.47
